Source: ChEMBL document CHEMBL1135445, “4'-Arylpyrrolomorphinans: effect of a pyrrolo-N-benzyl substituent in enhancing delta-opioid antagonist activity” (J Med Chem, 2002)

Sequences of proteins named here, by UniProt entry; tags and fusion partners are left off. A change or cut given only in a name is not applied to a line headed by its entry.
UniProt P41143, whole entry: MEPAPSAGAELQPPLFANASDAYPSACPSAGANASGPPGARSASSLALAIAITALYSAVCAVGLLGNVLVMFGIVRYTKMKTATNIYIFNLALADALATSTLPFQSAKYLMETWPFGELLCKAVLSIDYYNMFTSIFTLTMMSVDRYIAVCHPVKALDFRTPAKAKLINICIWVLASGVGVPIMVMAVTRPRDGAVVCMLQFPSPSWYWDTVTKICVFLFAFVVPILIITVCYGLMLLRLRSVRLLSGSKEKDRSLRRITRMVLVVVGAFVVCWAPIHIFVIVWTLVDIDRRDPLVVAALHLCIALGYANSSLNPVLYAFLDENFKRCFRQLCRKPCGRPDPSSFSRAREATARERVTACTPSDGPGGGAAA
UniProt P35372, whole entry: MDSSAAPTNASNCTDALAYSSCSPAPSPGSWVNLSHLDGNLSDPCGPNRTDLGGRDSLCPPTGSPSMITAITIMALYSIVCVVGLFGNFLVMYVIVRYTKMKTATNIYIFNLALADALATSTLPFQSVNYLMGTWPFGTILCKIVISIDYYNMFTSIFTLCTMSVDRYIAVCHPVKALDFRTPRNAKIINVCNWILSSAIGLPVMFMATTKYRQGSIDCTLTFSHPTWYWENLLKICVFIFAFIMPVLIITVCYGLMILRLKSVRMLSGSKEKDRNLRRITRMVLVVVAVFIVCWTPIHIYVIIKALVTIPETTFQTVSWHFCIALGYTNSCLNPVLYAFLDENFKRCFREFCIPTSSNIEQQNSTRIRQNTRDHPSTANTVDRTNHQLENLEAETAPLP
UniProt P41145: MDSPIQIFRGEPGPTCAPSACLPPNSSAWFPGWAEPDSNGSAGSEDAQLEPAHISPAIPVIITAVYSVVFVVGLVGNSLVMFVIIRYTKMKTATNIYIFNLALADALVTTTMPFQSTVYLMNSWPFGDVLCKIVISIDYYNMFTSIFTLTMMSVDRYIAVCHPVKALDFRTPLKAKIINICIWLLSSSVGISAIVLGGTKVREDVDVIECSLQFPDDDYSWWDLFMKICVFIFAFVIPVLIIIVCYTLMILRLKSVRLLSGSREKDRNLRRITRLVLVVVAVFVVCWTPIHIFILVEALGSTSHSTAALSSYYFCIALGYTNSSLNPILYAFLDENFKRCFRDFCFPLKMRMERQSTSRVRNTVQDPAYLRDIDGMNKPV

Assays:
Type in all cases: functional, cell-based
[1] = target: Delta-type opioid receptor (Homo sapiens, UniProt P41143); experiment: The antagonistic activity tested in [35S]GTP-gamma-S, Recombinant Human Opioid receptor delta 1 transfected in to CHO cells for the displacement of [3H]Cl-DPDPE (delta)
Procedure, shortened: (§1)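 [35S]GTPγS binding in CHO cells expressing cloned human opioid receptors. Antagonist affinity (Ke) was derived from the compound's blockade of a standard agonist: DAMGO at mu, Cl-DPDPE at delta, U69593 at kappa.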

Mu-type opioid receptor = Mu-type opioid receptor (Homo sapiens, UniProt P35372); experiment: The antagonistic activity tested in [35S]-GTP-gamma S Recombinant Human Opioid receptor mu 1 transfected in to CHO cells for the displacement of [3H]DAMGO (mu); procedure, shortened: as §1
[2] = target: Kappa-type opioid receptor (Homo sapiens, UniProt P41145); experiment: The antagonistic activity of compound was tested in [35S]GTP-gamma-S, Recombinant Human Opioid receptor kappa 1 transfected in to CHO cells for the displacement of [3H]U-69593; procedure, shortened: as §1

## Oc1ccc2c3c1O[C@H]1c4c(c(-c5ccccc5)cn4Cc4ccccc4)C[C@@]4(O)C(C2)N(CC2CC2)CC[C@]314
[1]
  Ke: 0.43 nM
Mu-type opioid receptor
  Ke: 8.09 nM
[2]
  Ke: 21.6 nM
